Measured values published in the Kinase Knowledgebase extract (Sharma et al. 2016).

By UniProt entry, the sequences of proteins in these tests, tags left out. Where a name states a change or a piece, a line headed by the entry shows the natural chain unless it says otherwise.
UniProt P42338: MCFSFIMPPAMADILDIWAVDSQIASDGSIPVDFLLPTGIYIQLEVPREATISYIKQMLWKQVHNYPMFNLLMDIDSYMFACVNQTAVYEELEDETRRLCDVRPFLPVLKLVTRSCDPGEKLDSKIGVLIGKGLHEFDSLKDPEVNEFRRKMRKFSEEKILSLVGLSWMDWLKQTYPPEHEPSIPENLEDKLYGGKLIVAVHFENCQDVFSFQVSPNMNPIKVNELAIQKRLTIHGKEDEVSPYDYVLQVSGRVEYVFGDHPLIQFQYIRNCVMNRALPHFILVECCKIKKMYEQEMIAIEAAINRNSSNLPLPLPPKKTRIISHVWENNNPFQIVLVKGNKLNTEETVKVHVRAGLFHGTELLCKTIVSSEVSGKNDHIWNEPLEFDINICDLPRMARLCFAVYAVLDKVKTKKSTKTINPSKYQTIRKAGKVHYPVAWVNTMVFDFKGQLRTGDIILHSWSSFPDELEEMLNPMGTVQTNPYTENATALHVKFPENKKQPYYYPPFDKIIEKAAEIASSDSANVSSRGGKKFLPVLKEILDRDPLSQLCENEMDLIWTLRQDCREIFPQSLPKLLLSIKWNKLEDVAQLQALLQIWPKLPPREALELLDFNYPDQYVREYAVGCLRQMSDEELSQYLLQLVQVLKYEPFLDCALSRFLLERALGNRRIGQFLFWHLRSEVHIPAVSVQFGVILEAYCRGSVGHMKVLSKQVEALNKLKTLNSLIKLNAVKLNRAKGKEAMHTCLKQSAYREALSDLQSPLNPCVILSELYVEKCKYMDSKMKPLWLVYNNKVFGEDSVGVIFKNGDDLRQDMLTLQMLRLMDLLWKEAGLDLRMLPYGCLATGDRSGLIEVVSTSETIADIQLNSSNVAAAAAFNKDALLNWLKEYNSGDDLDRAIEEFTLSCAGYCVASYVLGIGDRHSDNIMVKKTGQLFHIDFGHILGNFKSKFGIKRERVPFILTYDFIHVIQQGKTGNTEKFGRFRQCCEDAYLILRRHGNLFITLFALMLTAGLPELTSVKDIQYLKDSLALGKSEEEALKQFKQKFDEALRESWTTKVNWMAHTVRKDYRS

Target: PIK3CB (Human) (UniProt P42338)
Assay: Assessment of PIK3CB Kinase Activity

IC50: < 10 nM
Structure (SMILES): COc1c(OCC(O)CN2CCOCC2)ccc2c1N=C(NC(=O)c1cccnc1)N1CCN=C21 (stereo unspecified)
